Test results as given in article PMC7795340, “First Synthesis of Racemic Trans Propargylamino-Donepezil, a Pleiotrope Agent Able to Both Inhibit AChE and MAO-B, with Potential Interest against Alzheimer’s Disease” (Molecules, 2020).

The chains behind the UniProt entries cited, without tags or fusion partners.
UniProt P21397, whole entry: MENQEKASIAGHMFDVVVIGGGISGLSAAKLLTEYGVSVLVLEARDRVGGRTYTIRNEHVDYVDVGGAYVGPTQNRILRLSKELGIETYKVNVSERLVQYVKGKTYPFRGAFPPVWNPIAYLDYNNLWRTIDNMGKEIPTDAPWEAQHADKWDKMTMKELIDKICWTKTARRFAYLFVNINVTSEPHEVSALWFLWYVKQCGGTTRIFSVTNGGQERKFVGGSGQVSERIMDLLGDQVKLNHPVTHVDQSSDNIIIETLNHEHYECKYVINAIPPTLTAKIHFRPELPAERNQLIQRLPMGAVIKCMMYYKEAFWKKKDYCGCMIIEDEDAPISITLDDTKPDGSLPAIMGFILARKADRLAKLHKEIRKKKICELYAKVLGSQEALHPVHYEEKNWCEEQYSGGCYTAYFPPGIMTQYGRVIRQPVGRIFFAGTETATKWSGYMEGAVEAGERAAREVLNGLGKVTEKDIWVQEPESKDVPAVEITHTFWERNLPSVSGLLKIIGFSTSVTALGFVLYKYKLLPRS

Molecular target: T1, human recombinant MAO-A (Homo sapiens, UniProt P21397)
T1 construct: purchased Sigma Aldrich; host or cells: baculovirus infected insect cells (microsomes)
Assay: (h)MAO-A inhibition, kynuramine fluorescence assay
Format: biochemical
Conditions: read-out: (h)MAO-A IC50 (µM) (n = 3), mean ± SEM, kynuramine 50 µM
Procedure: Inhibition of human recombinant monoamine oxidases A (250 U/mg) and B (59 U/mg; microsomes from baculovirus infected insect cells; Sigma Aldrich) was determined as already described, measuring the fluorescence of 4-hydroxyquinoline (exc. 310 nm; em. 400 nm) produced by MAOs in the oxidative deamination of substrate kynuramine. […] Assays were performed in triplicate during three independent tests, in 96-well black polystyrene plates (Greiner Bio-One, Kremsmünster, Austria) using an Infinite M1000 Pro plate reader (Tecan, Cernusco s.N., Italy). […]; GraphPad Software, San Diego, CA, USA).

With `C#CCN(C)Cc1ccccc1` [Pargiline, pargiline, reference compound] the IC50 was 10.9 ± 0.6 µM.
